“Also recorded” adds a separate entry of the source.
Biological target: chymotrypsin:soybean trypsin inhibitor (Bos taurus, UniProt P00766)
Test: DLS chymotrypsin/soybean trypsin inhibitor heteroassociation repeated in the presence of a small molecule inhibitor
Format: binding
Details: 500 mM AEBSF; hydrochloride
Experimental: The additional data set in FIG. 3, represented by open squares, is the same experiment repeated in the presence of 500 mM 4-(2-Aminoethyl) benzenesulfonyl fluoride hydrochloride (AEBSF). AEBSF, is a small molecule known to be a serine protease inhibitor which binds to the chymotrypsin active site, thus inhibiting the binding of the soybean trypsin inhibitor. Since AEBSF is a small molecule (rh<<1 nm), the decay rate of the autocorrelation function associated with AEBSF is faster than may be observed with conventional DLS technology, and the presence of that molecule is not observed in the DLS signal. When AEBSF associates with chymotrypsin, the rh of the associated species is not measurable different from that of unassociated chymotrypsin. The increase in rh seen in the absence of AEBSF is not observed in this experiment. […] Additionally, the association constant of AEBSF with chymotrypsin may be measured using this invention by repeating the chymotrypsin/soybean trypsin inhibitor/AEBSF experiment and lowering the concentration of AEBSF until some increase in rh is seen, and modeling the associating species.

## Cl.NCCc1ccc(S(=O)(=O)F)cc1 [AEBSF, 4-(2-Aminoethyl) benzenesulfonyl fluoride hydrochloride]
  inhibition of chymotrypsin/soybean trypsin inhibitor binding (increase in rh): completely inhibited; also recorded: No binding

Reference: US9459207B2, “Method of characterizing interactions and screening for effectors” (Wyatt Technology Corporation, priority 2010, dated 2016)
